Screens: PubChem, Broad Institute
MLL AF4-AF9 inh = blocks AF4 peptide binding to human AF9; P42568; AlphaScreen, biotin-AF4 peptide binding to FLAG-AF9; inhibition, % at 10 µM; actives 0.47% (n = 350,000); AID 651704;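 active = every replicate reaching a set inhibition limit, whatever the replicate mean, cut at about 25% in these data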;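 note: 0% = plate neutral control median and 100% = total signal loss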
E-sel inducer = E-selectin induction on HUVECs; P16581; HUVEC E-selectin immunofluorescence imaging; normalized: neutral wells 0, TNF-alpha wells 100; activation, % at 7.58 µM; actives 0.37% (n = 260,000); AID 686992;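 active = mean E-selectin-positive cell signal at least 10% of the positive control, reached in at least 60% of replicates, without over 20% cell loss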
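Material: HUVEC primary endothelial cells; Amount: 3,000 cells per well; Dosing: single concentration; Medium: EGM-2 growth medium on 0.1% gelatin-coated wells; Read-out basis: percent E-selectin-positive cells; Signal: immunofluorescence imaging; Control set: TNF-alpha, DMSO.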
SIRT5 inh = blocks human SIRT5 desuccinylation of peptide; Q9NXA8; Purified SirT5, succinyl-peptide AMC, trypsin-coupled fluorescence; inhibition, % at 15 µM; actives 1.1% (n = 330,000); AID 652115; in the data active = inhibition above about 15%
RAD54 branch = RAD54 (human) branch migration inhibition; Q92698; AID 602329; inhibition, % at 10.4 µM; RAD54 Holliday junction branch migration, FAM/BHQ fluorescence; actives 0.14% (n = 360,000);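 active = mean normalized replicate activity at least 40 and at least half of replicates scoring 40 or more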;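 note: 0% = median of neutral control wells and 100% = median of positive control wells; inhibitors cause a drop in the FAM fluorescence signal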
UUG fidelity = modulators of start codon recognition fidelity in yeast; AID 602363; activity score, % at 18.7 µM; S. cerevisiae UUG-firefly luciferase reporter, luminescence/redox ratio; 0.13% of 350,000 active;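 active = replicate mean at a twofold rise or more, about +100% in these data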;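 note: firefly luciferase made from a UUG start codon reports start codon fidelity; reporter light over untreated wells divided by growth signal over untreated wells; some hits fall short of that in this replicate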
RAD52 anneal inh = blocks human RAD52 DNA annealing | AID 651710 | P43351 | recombinant RAD52 DNA annealing, FRET fluorescence | inhibition, % at 18.7 µM | actives 0.46% (n = 360,000);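 active = every replicate showing at least 50% inhibition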
* marks the source's active call; other numbers are inactive results; . = no result given. Rows were chosen to be rich in hits. Some 1.8% of all compounds tested hit in one or more screens of this group.

Field names: A = MLL AF4-AF9 inh; B = E-sel inducer; C = SIRT5 inh; D = RAD54 branch; E = UUG fidelity; F = RAD52 anneal inh
Cc1ccc(S(=O)(=O)N[C@@H]2CC[C@@H](CC(=O)NC3CCCCC3)O[C@H]2CO)cc1
  A: -2	B: 1	C: -1	D: 1	E: 22	F: -6

CN(C)C(=O)c1cccc(-c2ccc3c(c2)[C@@H]2[C@@H](CCN2C(=O)C2CCC2)[C@H](CO)N3)c1
  A: -2	B: 0	C: 0	D: .	E: .	F: 12

O=C(COc1ccccc1)N/N=C/c1ccc2c(c1)OCO2
  A: -2	B: 1	C: 21*	D: 4	E: -14	F: -14

O=C(C1=NN[C@@H]2C(=O)N(c3cccc(C(F)(F)F)c3)C(=O)[C@H]12)c1ccc2ccccc2n1
  A: .	B: 0	C: .	D: .	E: .	F: .

O=C(C1=NN[C@@H]2C(=O)N(c3cccc(F)c3)C(=O)[C@H]12)c1ccc2ccccc2n1
  A: -1	B: 10	C: 16*	D: -11	E: -2	F: -15

CC1=C(C(=O)OCC(Br)(Br)Br)C(c2cccc([N+](=O)[O-])c2)NC(=O)N1CCCC(=O)O (stereo not given)
  A: -1	B: 0	C: 23*	D: -5	E: -10	F: -17

COC(=O)c1ccc(N2CCN(C)CC2)c(NC(=O)c2sc3ccccc3c2Cl)c1
  A: 26*	B: .	C: -3	D: 20	E: -5	F: -12

Cc1noc(C)c1NC(=O)Nc1ccc2c(c1)CC(=O)N([C@H](C)CO)C[C@H](C)[C@@H](CN(C)S(=O)(=O)c1cn(C)cn1)O2
  A: .	B: 0	C: .	D: 6	E: 2	F: .

CC1CN(S(=O)(=O)c2ccc(Cl)c(C(F)(F)F)c2)CC(C)O1 (stereo not given)
  A: -2	B: .	C: 15*	D: .	E: .	F: -9

Cc1ccc(-c2ccc([C@H]3[C@@H](CO)N4C(=O)CN(C(=O)c5ccncc5)C[C@@H]34)cc2)cc1
  A: -1	B: 0	C: -7	D: .	E: .	F: 3

COc1ccc2c3c([nH]c2c1)[C@H](CO)N(C(=O)Nc1ccc(F)cc1)CC31CCN(S(=O)(=O)c2cccc(F)c2)CC1
  A: 0	B: -1	C: 6	D: .	E: .	F: 8

COc1ccccc1P(=O)(Cc1ccccc1[N+](=O)[O-])c1ccccc1 (stereo not given)
  A: 0	B: 59*	C: 3	D: .	E: .	F: -12

COc1cc(/C=C/C(=O)OCC(=O)N2CCCC2)ccc1OCC#N
  A: 31*	B: .	C: 3	D: 3	E: -11	F: -4

O=C(C[C@H]1CC[C@H]2[C@@H](COC[C@H](O)CN2Cc2cc(F)cc(F)c2)O1)Nc1nccs1
  A: .	B: 0	C: .	D: 7	E: .	F: .

CC1=[N+](C)c2ccc3ccccc3c2C1(C)C
  A: 23	B: 196*	C: 0	D: .	E: .	F: -28

c1ccc2c(c1)ccc1ccccc12
  A: -2	B: .	C: 5	D: -10	E: -15	F: -6

COc1ccccc1-c1csc(C(C)(O)c2ccccc2)n1 (stereo not given)
  A: -8	B: 0	C: 16*	D: -4	E: 2	F: -17

C[C@@H]1CN([C@H](C)CO)C(=O)Cc2cc(NC(=O)Nc3ccc(C(F)(F)F)cc3)ccc2O[C@H]1CN(C)Cc1ccc(Oc2ccccc2)cc1
  A: .	B: 446*	C: .	D: -5	E: -6	F: .

C[C@@H]1CN([C@@H](C)CO)C(=O)Cc2cc(NC(=O)Nc3ccc(C(F)(F)F)cc3)ccc2O[C@H]1CN(C)Cc1ccc(Oc2ccccc2)cc1
  A: .	B: 19	C: .	D: -11	E: -5	F: .

C[C@H](CO)N1C[C@H](C)[C@@H](CN(C)Cc2ccccc2)Oc2ccc(NC(=O)Nc3ccc(C(F)(F)F)cc3)cc2CC1=O
  A: 6	B: 0	C: -3	D: -4	E: 5	F: 54*

CCCN1C[C@@H](C)[C@H](OC)CN(C)C(=O)c2cc(NC(=O)Nc3c(C)noc3C)ccc2OC[C@H]1C
  A: 2	B: 0	C: 0	D: -5	E: -6	F: 8

C[C@@H]1CN([C@@H](C)CO)S(=O)(=O)c2ccc(C#CC(C)(C)O)cc2O[C@@H]1CN(C)Cc1ccc(-c2ccccc2)cc1
  A: 4	B: 0	C: 19*	D: 1	E: -7	F: 8

C[C@@H]1CN([C@@H](C)CO)S(=O)(=O)c2ccc(C#CC(C)(C)O)cc2O[C@H]1CN(C)Cc1ccc(F)cc1
  A: 2	B: 1	C: 18*	D: -5	E: .	F: 10

COC(=O)C[C@H]1CC[C@H]2[C@H](COc3ccc(NC(=O)Nc4cc(C)cc(C)c4)cc3C(=O)N2C)O1
  A: 5	B: 0	C: 6	D: -3	E: .	F: 4

COc1ccc(C[C@H]2CCc3cnnn3COC[C@@H](C(C)C)NC2=O)cc1
  A: 15	B: 1	C: -1	D: .	E: .	F: 17

Cc1ccc(OCCNC(=O)C2CCCCC2)cc1
  A: -2	B: .	C: 19*	D: .	E: .	F: -9

O=C(NCCOc1ccc(Cl)cc1)C1CCCCC1
  A: -1	B: 1	C: -2	D: 8	E: -13	F: -11

Cn1c(NC(=O)CCC2CCCCC2)cc(=O)n(C)c1=O
  A: 3	B: 0	C: .	D: -3	E: -14	F: -64

Cn1c(NC(=O)C2CC2)cc(=O)n(C)c1=O
  A: 49*	B: 0	C: -2	D: -14	E: -23	F: -7

C[C@@H]1CN([C@H](C)CO)C(=O)Cc2cc(NC(=O)Nc3ccc(C(F)(F)F)cc3)ccc2O[C@H]1CN(C)S(=O)(=O)c1ccccc1
  A: -4	B: 2	C: 13	D: .	E: .	F: 11

Results in MLL AF4-AF9 inh, for two of the compounds above:
Compound | MLL AF4-AF9 inh
C[C@@H]1CN([C@@H](C)CO)S(=O)(=O)c2ccc(C#CC(C)(C)O)cc2O[C@H]1CN(C)Cc1ccc(F)cc1 | 2
COC(=O)C[C@H]1CC[C@H]2[C@H](COc3ccc(NC(=O)Nc4cc(C)cc(C)c4)cc3C(=O)N2C)O1 | 5

RAD52 anneal inh: what is marked active above
Compound | MLL AF4-AF9 inh | SIRT5 inh | UUG fidelity | RAD52 anneal inh
C[C@H](CO)N1C[C@H](C)[C@@H](CN(C)Cc2ccccc2)Oc2ccc(NC(=O)Nc3ccc(C(F)(F)F)cc3)cc2CC1=O | 6 | -3 | 5 | 54*

Next entries follow.
Field names: A = MLL AF4-AF9 inh; B = E-sel inducer; C = SIRT5 inh; D = RAD54 branch; E = UUG fidelity; F = RAD52 anneal inh
C[C@H](CO)N1C[C@H](C)[C@@H](CN(C)S(=O)(=O)c2ccccc2)Oc2ccc(NC(=O)Nc3ccc(C(F)(F)F)cc3)cc2CC1=O
  A: 0	B: 0	C: 19*	D: .	E: .	F: -10

COc1ccc(NC(=O)Nc2ccc3c(c2)CC(=O)N([C@H](C)CO)C[C@H](C)[C@@H](CN(C)S(=O)(=O)c2ccc(C)cc2)O3)cc1
  A: 2	B: 1	C: 15*	D: .	E: .	F: 19

C[C@H](CO)N1C[C@H](C)[C@H](CN(C)S(=O)(=O)c2ccccc2)Oc2ccc(NC(=O)Nc3ccc4c(c3)OCO4)cc2CC1=O
  A: 4	B: 1	C: 16*	D: .	E: .	F: -3

Cc1noc(C)c1NC(=O)Nc1ccc2c(c1)CC(=O)N([C@H](C)CO)C[C@H](C)[C@H](CN(C)S(=O)(=O)c1ccccc1)O2
  A: -16	B: 47*	C: 1	D: 5	E: 1	F: 8

Cc1noc(C)c1NC(=O)Nc1ccc2c(c1)CC(=O)N([C@H](C)CO)C[C@H](C)[C@@H](CN(C)S(=O)(=O)c1ccccc1)O2
  A: -25	B: 3	C: 3	D: 5	E: 11	F: 17

CCNC(=O)C[C@H]1CC[C@H]2[C@@H](COc3ccc(NC(=O)c4ccccc4Cl)cc3C(=O)N2C)O1
  A: .	B: .	C: .	D: -1	E: -2	F: .

COc1ccc(S(=O)(=O)N(C)C[C@H]2Oc3ccc(NC(=O)Nc4ccc5c(c4)OCO5)cc3CC(=O)N([C@H](C)CO)C[C@@H]2C)cc1
  A: 2	B: 429*	C: 11	D: 6	E: -13	F: -4

COc1ccc(S(=O)(=O)N2C[C@@H](O)COC[C@@H]3O[C@@H](CC(=O)NCCN4CCCCC4)CC[C@H]32)cc1
  A: -15	B: 0	C: 3	D: 6	E: .	F: -2

C[C@H](CO)N1C[C@H](C)[C@H](CN(C)Cc2ccccc2)Oc2ccc(N(C)C)cc2C1=O
  A: -1	B: 0	C: 0	D: -16	E: -24	F: 5

C[C@H](CO)N1C[C@H](C)[C@@H](CN(C)Cc2ccc(Oc3ccccc3)cc2)Oc2ccc(N(C)C)cc2C1=O
  A: 37*	B: 0	C: -4	D: -8	E: -9	F: -11
